Tested on: cardiomyocyte culture
Assay: Total ROS in cardiomyocyte culture treated with Hx, DFP, hemin
Assay type: cell-based
Details: versus hemin and pre-treatment with DFP
Source text: FIG. 16 is a bar graph depicting the total ROS production (μM/mg protein/min) in cardiomyocyte culture treated with different agents or control, indicating the importance of physiochemical state of degradation products of hemorrhage being the therapeutic targets.
Physiochemical features of degradation products of hemorrhage are important for determining optimal therapy. An early byproduct of hemorrhage is extracellular heme (an Fe^2+ complex), which is eventually internalized by cardiomyocytes. Applicant tested whether pretreating cardiomyocytes in culture with hemopexin (Hx), a heme scavenger, can rescue the cells from oxidative stress compared to an intracellular Fe^3+ chelator deferiprone (DFP). Methods: Studies were performed in an cardiomyocyte culture. Total ROS following treatment with Hx, DFP, hemin, hemin+Hx, hemin+DFP were measured. […] Summary: Location of hemorrhagic byproducts (intra- vs. extra-cellular) and oxidation state are critical features that need to be accounted for in the development of therapies against hMI. To develop an optimal ICT strategy against hMI we will identify the physiochemical features of hemorrhagic byproducts in rats with hMI sacrificed at different time points.

For hemopexin, the “Total ROS, pre-treatment and then exposing to hemin” value was “significantly reduced”.

From US20230165841A1, “PREVENTION AND INTERVENTION OF INFARCT EXPANSION FOLLOWING HEMORRHAGIC INFARCTIONS” (CEDARS-SINAI MEDICAL CENTER, priority 2020, published 2023)
